Reference: patent US20060062842A1, “Method of administering a compound to multi-drug resistant cells” (Alza Corporation, priority 1998, published 2006)

System: M109R-HiFR cells
Test: Cellular and nuclear doxorubicin quantitation
Conditions: 1 to 4 hours exposure of tumor cells

`COc1cccc2c1C(=O)c1c(O)c3c(c(O)c1C2=O)C[C@@](O)(C(=O)CO)C[C@@H]3O[C@H]1C[C@H](N)[C@H](O)[C@H](C)O1` [Free Doxorubicin, doxorubicin] was tested, and the “metabolites detected in cells” value was “no significant amounts of metabolites were detected”.
